From paper PMC7056512 (Cancer research, 2020)

Tests used:
CUHN013 PDX = test: PDX efficacy study; type: in vivo, Athymic Nude-Foxn1^nu mice; settings: radiation plus SVC112, twice weekly
Summary of the method: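 Tumor pieces from 4th-8th-generation PDX implanted on both flanks of 6-10-week-old female mice. Anesthetized mice shielded except flank tumors and irradiated at 3 Gy (115 cGy/min) twice weekly for four weeks. Test compound given IP at 60mg/kg right after irradiation and 6h later. Tumors measured twice weekly. ALDH+CD44high CSC fraction measured by flow cytometry on day 28, then related to tumor treatment/control ratio by linear regression.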

[1] = tested on: non-tumor bearing female Balb/C mice; settings: 60mg/kg IP q6h x 2, once per week, 4 weeks
[2] = media incubated 24h with cells, then transferred

Meta Br-N-29-H derivative of RA-VII [SVC112]
body weight vs control animals (CUHN013 PDX): Significant weight loss | histopathology [1]: no abnormal histopathology was observed | stability in media [2]: inhibited protein synthesis, proliferation, and suppressed protein levels like fresh drug
